Laboratory results published in patent US10112942B2, “Substituted pyrazolo[1,5-A]pyridine compounds as RET kinase inhibitors” (Array BioPharma, Inc., priority 2016, dated 2018).

Chains of the proteins cited; added tags and fusions are not shown. Residues count along the entry.
UniProt P07949, 29-1114 limits assumed: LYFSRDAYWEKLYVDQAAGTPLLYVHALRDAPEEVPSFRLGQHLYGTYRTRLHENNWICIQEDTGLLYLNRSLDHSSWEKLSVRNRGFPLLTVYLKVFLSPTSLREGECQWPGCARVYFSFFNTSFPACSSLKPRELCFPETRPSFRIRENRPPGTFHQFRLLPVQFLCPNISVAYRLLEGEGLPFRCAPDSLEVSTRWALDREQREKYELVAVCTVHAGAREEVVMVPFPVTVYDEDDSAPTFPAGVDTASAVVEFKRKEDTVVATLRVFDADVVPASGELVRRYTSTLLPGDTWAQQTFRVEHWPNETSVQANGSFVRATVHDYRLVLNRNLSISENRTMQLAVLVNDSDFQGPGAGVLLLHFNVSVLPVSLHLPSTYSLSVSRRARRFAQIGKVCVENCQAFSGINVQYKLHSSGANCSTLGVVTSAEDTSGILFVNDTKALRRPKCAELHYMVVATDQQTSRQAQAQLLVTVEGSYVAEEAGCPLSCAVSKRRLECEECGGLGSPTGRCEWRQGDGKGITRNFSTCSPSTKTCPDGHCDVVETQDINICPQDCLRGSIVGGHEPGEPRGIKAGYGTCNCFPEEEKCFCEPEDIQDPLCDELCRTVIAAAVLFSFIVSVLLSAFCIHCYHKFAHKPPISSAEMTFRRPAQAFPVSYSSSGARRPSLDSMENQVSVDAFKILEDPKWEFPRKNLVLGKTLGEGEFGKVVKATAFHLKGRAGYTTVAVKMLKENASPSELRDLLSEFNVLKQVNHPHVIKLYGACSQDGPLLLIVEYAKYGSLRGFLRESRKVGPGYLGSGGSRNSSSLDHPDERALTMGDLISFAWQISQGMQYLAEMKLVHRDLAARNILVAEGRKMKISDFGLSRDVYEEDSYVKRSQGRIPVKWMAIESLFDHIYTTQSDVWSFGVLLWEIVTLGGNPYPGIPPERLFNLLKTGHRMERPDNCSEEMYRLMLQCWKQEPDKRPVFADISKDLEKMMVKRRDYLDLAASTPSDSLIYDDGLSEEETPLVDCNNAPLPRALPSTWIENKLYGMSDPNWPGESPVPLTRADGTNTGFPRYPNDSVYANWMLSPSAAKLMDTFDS

Target: Kif5b-RET fusion protein in HEK-293 cells (Homo sapiens, UniProt P07949)
Assay: cell-based

CC(C)(O)COc1cc(-c2ccc(N3CC4CC(C3)N4Cc3cnccn3)nc2)c2c(C#N)cnn2c1 [Example 336, 6-(2-hydroxy-2-methylpropoxy)-4-(6-(6-(pyrazin-2-ylmethyl)-3,6-diazabicyclo[3.1.1]heptan-3-yl)pyridin-3-yl)pyrazolo[1,5-a]pyridine-3-carbonitrile]
IC50: 0.164 µM
